{
  "source": "paper PMC8036510",
  "about": "“The Inhibitory Effects of Plant Derivate Polyphenols on the Main Protease of SARS Coronavirus 2 and Their Structure–Activity Relationship” (Molecules, 2021)",
  "key": {"SARS-CoV-2 M^pro [1]": {"target": "T1, SARS-CoV-2 M^pro (Severe acute respiratory syndrome coronavirus 2, UniProt P0DTD1)"}, "SARS-CoV-2 M^pro [2]": {"target": "T1, SARS-CoV-2 M^pro", "assay": "biochemical"}, "SARS-CoV-2 M^pro [3]": {"target": "T1, SARS-CoV-2 M^pro", "assay": "Effect of DMSO on SARS-CoV-2 M^pro activity", "type": "biochemical", "conditions": "37 °C, 30 min"}, "SARS-CoV-2 M^pro [4]": {"target": "T1, SARS-CoV-2 M^pro", "assay": "Combinative inhibitory effects of tannic acid, puerarin, daidzein and myricetin on M^pro", "type": "biochemical"}},
  "note": "Values joined by “and” are separate entries in the source; they are usually repeats but may differ in a detail not shown here. Equal entries are not always repeated.",
  "data": [
    {"smiles": "O=C1c2c(O)cc(O)cc2OC(c2cc(O)c(OC3OC(CO)C(O)C(O)C3O)c(O)c2)C1O", "note": "(stereo not drawn)", "values": [
      {"measurement": "inhibition", "setting": "SARS-CoV-2 M^pro [1]; pH 7.5", "value": "> 50% and 50%"},
      {"measurement": "IC50", "setting": "SARS-CoV-2 M^pro [2]", "value": "195 ± 5", "unit": "µM"}
    ]},
    {"smiles": "O=c1c(O[C@@H]2O[C@H](CO)[C@@H](O)[C@H](O)[C@H]2O)c(-c2ccc(O)cc2)oc2cc(O)cc(O)c12", "note": "[Astragalin]", "values": [
      {"measurement": "IC50", "setting": "SARS-CoV-2 M^pro [2]", "value": "143 ± 9", "unit": "µM"}
    ]},
    {"smiles": "O=C(O)/C=C/c1ccc(O)c(O)c1", "note": "[Caffeic acid]", "values": [
      {"measurement": "IC50", "setting": "SARS-CoV-2 M^pro [2]", "value": "197 ± 1", "unit": "µM"}
    ]},
    {"smiles": "C[S+](C)[O-]", "note": "[DMSO, Dimethylsulfoxide]", "values": [
      {"measurement": "M^pro activity in the presence of DMSO", "setting": "SARS-CoV-2 M^pro [3]; 50% (v/v) DMSO", "value": "not detected"},
      {"measurement": "M^pro activity in the presence of DMSO", "setting": "SARS-CoV-2 M^pro [3]; up to 10% (v/v) DMSO", "value": "stable"}
    ]},
    {"smiles": "O=C1C[C@@H](c2ccc(O)cc2)Oc2cc(O)cc(O)c21", "note": "[Naringenin]", "values": [
      {"measurement": "inhibitory activity, fold higher than that of naringin", "setting": "SARS-CoV-2 M^pro [1]; 200 μM, relative to naringin", "value": 3.2, "unit": "fold"},
      {"measurement": "IC50", "setting": "SARS-CoV-2 M^pro [2]", "value": "150 ± 10", "unit": "µM"}
    ]},
    {"smiles": "O=c1c(-c2ccc(O)cc2)coc2c([C@@H]3O[C@H](CO)[C@@H](O)[C@H](O)[C@H]3O)c(O)ccc12", "note": "[Puerarin]", "values": [
      {"measurement": "inhibition at 45 µM", "setting": "SARS-CoV-2 M^pro [4]; read-out: M^pro inhibitory activity of flavonoids", "value": "50.8 ± 2", "unit": "%"},
      {"measurement": "inhibition at 20 µM", "setting": "SARS-CoV-2 M^pro [4]; read-out: inhibitory effect of a single polyphenol on M^pro", "value": "23 ± 5", "unit": "%"},
      {"measurement": "IC50", "setting": "SARS-CoV-2 M^pro [2]", "value": "42 ± 2", "unit": "µM"}
    ]},
    {"smiles": "O=c1c(O)c(-c2ccc(O)c(O)c2)oc2cc(O)c(O)c(O)c12", "note": "[Quercetagenin]", "values": [
      {"measurement": "IC50", "setting": "SARS-CoV-2 M^pro [2]", "value": "145 ± 6", "unit": "µM"}
    ]},
    {"smiles": "Oc1ccc(/C=C/c2cc(O)cc(O)c2)cc1", "note": "[Resveratrol]", "values": [
      {"measurement": "IC50", "setting": "SARS-CoV-2 M^pro [2]", "value": "103 ± 6", "unit": "µM"}
    ]},
    {"smiles": "O=c1cc(-c2ccc(O)cc2)oc2c([C@@H]3O[C@H](CO)[C@@H](O)[C@H](O)[C@H]3O)c(O)cc(O)c12", "note": "[Vitexin]", "values": [
      {"measurement": "inhibitory activity on M^pro, fold that of apigenin", "setting": "SARS-CoV-2 M^pro [1]; 200 μM, relative to apigenin", "value": 2, "unit": "fold"},
      {"measurement": "IC50", "setting": "SARS-CoV-2 M^pro [2]", "value": "180 ± 6", "unit": "µM"}
    ]}
  ]
}
